This is an account of results in patent US20200246297A1, “LIQUID PHARMACEUTICAL FORMULATIONS OF TETRAIODOTHYRONINE” (priority 2015, published 2020).

For data set [1] the following is noted: 25° C.; cited from earlier work.
A short description of data set [2]: Quantity of T4 microaggregates formed in water: HPLC T4 concentration before and after 0.2 μm microfiltration. It is filed as physicochemical. The settings on record: T4 in glycerin, ethanol or glycerin/ethanol 80/20 w/w, diluted 100 times in water pH 6.5; T0. The protocol:
To establish the formation of microaggregates of T4 in an aqueous medium a fine T4 powder is dissolved in 10 mL of water (HPW), pH 6.5, at the concentration of 150 μg/mL, and the mixture is left under stirring for 5 h in an inert atmosphere. […] 50 mL of each sample taken is microfiltered through a Millipore GSWP02500 membrane with a porosity of 0.2 μm. The concentration of T4 in the samples is then determined before and after microfiltration by HPLC (Beckman Coulter; Supelco Discovery Cyano column 100×2.1 mm, 5 μm, flow rate 0.2 mL/min; Å 225 nm; isocratic elution H2O/acetonitrile (80/20 w/w)+0.1% formic acid; inj. vol. 20 μL; temperature 35° C.; column pressure 130-170 Kg/cm^2; run time 25 min).
To establish whether the formation of T4 in an aqueous medium can be affected by pre-solubilisation in organic solvents compatible with pharmaceutical use, a fine T4 powder is dissolved in 10 mL of pharmaceutical grade PEG 200 or PEG 300 or PEG 400 or PEG 600 (polyethylene glycols which are liquid at room temperature, with an average degree of polymerisation of 4, 6, 8 and 12 monomer units respectively) at the concentration of 150 μg/mL, and left under stirring, under nitrogen, until the solution is completely clear. […] The concentration of T4 in the samples is then determined before and after microfiltration by HPLC, as reported in example 1. […]

With “(2S)-2-amino-3-[4-(4-hydroxy-3,5-diiodo-oxyphenyloxy)-3,5-diiodophenyl]propanoic acid [T4]”, the “solubility of T4 (water)” value in data set [1] is 0.105 µg/mL. Moreover, the “insoluble, non-bioavailable microaggregates formed” value in data set [2] was 5-10 % of the dose.
